# Antibody variant affinities, Ab-91 heavy chain, assay 2

Target: peptide PDVDLGDISGINAS, taken from heptad repeat 2 (HR2) of SARS-CoV-2 spike.

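The starting antibody came from a phage panning campaign against this peptide. Library AAYL51 holds single substitutions and randomly drawn double and triple substitutions in the CDRs. Affinity was read by AlphaSeq, a pooled yeast mating assay with surface-displayed partners. The frequency of each diploid, read from paired DNA barcodes, reflects how well the two displayed proteins bind. The ratio of observed to expected reads was calibrated, replicate by replicate, on BCL2-family standards whose Kd was known from biolayer interferometry. Mating was done three times.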

Ab-91 is the parent antibody, in scFv form: VL, then a 15-residue (Gly4Ser)3 linker, then VH. The light chain is unchanged in all variants.
VL: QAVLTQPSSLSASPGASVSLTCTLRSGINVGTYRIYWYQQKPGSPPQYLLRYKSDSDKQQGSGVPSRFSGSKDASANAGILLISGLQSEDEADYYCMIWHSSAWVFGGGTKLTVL
VH: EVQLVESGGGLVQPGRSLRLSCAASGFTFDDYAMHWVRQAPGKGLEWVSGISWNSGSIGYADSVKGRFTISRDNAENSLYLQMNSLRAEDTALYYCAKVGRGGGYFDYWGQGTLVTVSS

The parent's heavy chain CDRs are GFTFDDYAMH, GISWNSGSIGYADSVK, VGRGGGYFDY; each variant's own CDRs replace them letter for letter.
The read-out is the apparent dissociation constant on a log10 scale (nM): the lower, the stronger.
The mean shown is taken over the replicates in which the pair was detected.
"nd" marks a missing value. The strain was present, yet no cells mated with the target were sequenced in that replicate, which points to weak or no binding.
As a blank, each scFv also met three strains without target: over library AAYL51, 21% of these pairings were detected, typically at 4.54 and seldom below 3.26. Also given: how often the same scFv was detected with the empty control strains.
In this assay the parent's reference entry averaged 1.86; its copy inside this library read 0.88.

The variant GKTFDIYAMH / GISWNSGSIIYADSVK / VGRGGGYFDY gave nd, 5.60, nd (controls 0 of 9).
The variant GFTFDDYASH / GIIWNSGSIGYADSYK / VGRGGGYFDY gave nd, nd, 4.78 (controls 0 of 9).
The variant GFTFDDYAHH / GIEWNSMSIGYADSVK / VGRGGGYFDY gave 5.20, nd, nd (controls 1 of 9).
The variant GFTFDDYAMH / GISWNSGSICYADSVK / VNRGGGYFDA gave nd, nd, nd (controls 2 of 9).
The variant GFTFDDYAMH / GISWNSFSIGYADSVK / PGRGGGNFDY gave nd, 4.14, nd (controls 1 of 9).
The variant GFTFDDYAMH / GISWNDGSNGYADSVK / VGRGGGYFDY gave nd, nd, nd (controls 0 of 9).
The variant SFTFDDYAMH / DISWNNGSIGYADSVK / VGRGGGYFDY gave 4.40, 4.12, 3.97 (mean 4.16; controls 2 of 9).
The variant GFTFIDYAMH / GISWNSGVIGYADSVK / VGRTGGYFDY gave nd, nd, nd (controls 0 of 9).
The variant GFTFDGYATH / GISWNSASIGYADSVK / VGRGGGYFDY gave nd, nd, nd (controls 0 of 9).
The variant GFTFDNYAMH / GISWNSGSIYYADSVK / VGRGGGYFDY gave nd, nd, nd (controls 8 of 9).
The variant GFTFDDYAMH / MISWNSGSIGYADSVK / VGRGLGYFDY gave 4.91, 4.71, nd (mean 4.81; controls 4 of 9).
The variant GFTFDDYAMH / GHSHNSGSIGYADSVK / VGRGGGYFIY gave 5.51, 4.98, 5.37 (mean 5.29; controls 4 of 9).

Values reported by Engelhart et al. 2022, doi:10.1038/s41597-022-01779-4 (FLAb copy).